Biological target: TACE enzyme (Homo sapiens, UniProt P78536)
Experiment: Enzymatic assay for TACE inhibition
Format: biochemical
Conditions: Example 28 table

Chains of the proteins cited; added tags and fusions are not shown. Residues count along the entry.
UniProt P78536, 215-824 limits assumed: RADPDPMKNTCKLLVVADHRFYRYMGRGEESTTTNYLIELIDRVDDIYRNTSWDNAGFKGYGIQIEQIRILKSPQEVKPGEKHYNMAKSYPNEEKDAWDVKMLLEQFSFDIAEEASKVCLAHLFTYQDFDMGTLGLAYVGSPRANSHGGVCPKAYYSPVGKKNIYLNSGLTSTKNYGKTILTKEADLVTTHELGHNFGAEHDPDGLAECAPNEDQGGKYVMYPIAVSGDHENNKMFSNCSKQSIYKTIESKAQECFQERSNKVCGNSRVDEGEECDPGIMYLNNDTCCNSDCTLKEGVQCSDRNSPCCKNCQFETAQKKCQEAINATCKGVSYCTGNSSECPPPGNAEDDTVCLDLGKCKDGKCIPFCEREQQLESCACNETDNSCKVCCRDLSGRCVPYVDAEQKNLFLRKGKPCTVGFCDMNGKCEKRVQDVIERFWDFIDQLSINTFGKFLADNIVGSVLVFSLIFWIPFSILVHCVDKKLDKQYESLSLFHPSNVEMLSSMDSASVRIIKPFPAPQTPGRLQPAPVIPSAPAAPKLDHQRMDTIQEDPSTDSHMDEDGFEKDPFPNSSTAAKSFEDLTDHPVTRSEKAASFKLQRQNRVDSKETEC

- IC50: 87 nM
Structure (SMILES): CC#CCOc1ccc(S(=O)(=O)CNCC(C(=O)NO)N2CCN(S(C)(=O)=O)CC2)cc1 (stereo not shown) [Example 1, 3-[(4-but-2-ynyloxybenzenesulfonyl)methylamino]-N-hydroxy-2-(4-methanesulfonylpiperazin-1-yl)propionamide]
